From PubChem
E-selectin induc = induces E-selectin expression in human endothelial cells. 260,000 tested, 0.37% active. HUVEC E-selectin immunofluorescence imaging; normalized: neutral wells 0, TNF-alpha wells 100. AID 686992. activation, % at 7.58 µM;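 active means mean E-selectin-positive cell signal at least 10% of the positive control, reached in at least 60% of replicates, without over 20% cell loss; inconclusive means no rule given, readout overlaps actives, possibly toxicity-flagged; inactive means the rest, including those meeting only one limit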
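material = human umbilical vein endothelial cells (HUVEC), E-selectin induction | quantity = 3,000 cells/well | medium = EGM-2 growth medium on 0.1% gelatin-coated wells | technique = immunofluorescence imaging | read-out basis = % PE-positive cells | control set = TNF-alpha positive control, DMSO neutral control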
DENV2 CPE = inhibitors of DENV2 cytopathic effect; DENV2-infected cells, cytopathic effect rescue, plate reader; 350,000 tested, 1.7% active; CPE inhibition, % at 9.99 µM; in the data active means CPE inhibition above about 20%, passing the limit was not always enough; inconclusive means no clear call, values can overlap the other calls; tested in BHK-21 cells;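 further: 0% = median of neutral control wells and 100% = median of positive control wells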
Yeast UUG start-1 = modulators of start codon recognition fidelity in yeast; S. cerevisiae UUG-firefly luciferase reporter, luminescence/redox ratio; AID 602363; 350,000 tested, 0.13% active; activity score, % at 18.7 µM;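 active = replicate mean at a twofold rise or more, about +100% in these data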;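 also: firefly luciferase made from a UUG start codon reports start codon fidelity; reporter light over untreated wells divided by growth signal over untreated wells; some hits fall short of that in this replicate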
Cneo AK release = Cryptococcus neoformans lysis via adenylate kinase release; 360,000 tested, 0.2% active; lysis activity, % at 15 µM; C. neoformans lysis, adenylate kinase release luminescence, 4 h; normalised: neutral wells 0, clomiphene wells 100;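 active means mean lysis activity across replicates of at least 80%, whatever share of replicates individually reach that level; inactive means mean lysis activity below 80%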
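read-out = cell lysis signal | test system = log-phase Cryptococcus neoformans yeast cells | input = cells at 5 × 10^6 per mL | medium = fresh YPD growth medium | signal = luminescent adenylate kinase detection reagent | timing = 4 h at 37 °C static, read 1 h later | dosing = single dose | controls = Clomiphene as positive lysis control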
Yeast UUG start-2 = alters UUG start codon use in yeast; shares compounds with Yeast UUG start-1; S. cerevisiae UUG-start firefly luciferase, luminescence, 4 h; 100% means double the DMSO signal; activation, % at 38 µM; 540 tested, under 10 active; AID 652061;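 active means signal increase whose fitted curve reaches an absolute level of 40 at a concentration under 10 µM; inactive means activity opposite to the expected increase, or the rest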
Active calls of the source: *; i = inactive; u = inconclusive; x = no result. In the library only some 1.8% were active in any assay of this set; here they are far more common.

#	Structure	E-selectin induc	DENV2 CPE	Yeast UUG start-1	Cneo AK release	Yeast UUG start-2
1	CCC(=O)N(C)C[C@@H]1Oc2cc(C#Cc3ccccc3)ccc2S(=O)(=O)N([C@H](C)CO)C[C@@H]1C	0	-2	0	1	x
2	CO[C@@H]1CN(C)C(=O)c2ccc(NC(=O)C3CCC3)cc2OC[C@H](C)N(Cc2ccc(F)cc2)C[C@@H]1C	0	0	-2	0	x
3	Cc1ccccc1-n1c(SCC(=O)c2cc(C)n(C)c2C)nnc1-c1cccnc1	x	x	x	x	-5
4	COCCn1c(C)cc(C(=O)CSc2nnc(-c3cccnc3)n2-c2ccccc2F)c1C	x	x	7	-10	x
5	O=C(O)CSc1nnc(-c2ccc(Cl)cc2)n1-c1ccccc1	x	-2	124*	-1	0
6	O=C(CN1CCCc2ccccc21)N/N=C/c1ccccc1O	x	x	67*	-5	10
7	O=C(CN1CCCc2ccccc21)N/N=C/c1ccc(F)cc1F	x	-3	-22	1	x
8	C/C=C/c1cnc2c(c1)C(=O)N([C@@H](C)CO)C[C@@H](C)[C@H](CN(C)S(=O)(=O)c1ccc(F)cc1)O2	0	u	21	-3	x
9	C1CN(c2nc3nonc3n3nnnc23)CCO1	x	x	442*	1	8
10	c1ccc2c(c1)nc(N1CCOCC1)c1nnnn12	1	u	-18	-3	x
11	COCCNC(=O)C[C@@H]1C[C@H]2c3cc(NC(=O)CC4CC4)ccc3O[C@H]2[C@@H](CO)O1	0	-7	-20	-1	x
12	COc1cc(CCC(=O)OCC(=O)Nc2cccc(S(=O)(=O)N(C)C)c2)cc(OC)c1OC	3	1	x	x	x
13	CCN(CC)S(=O)(=O)c1ccc(NC(=O)COC(=O)CCc2cc(OC)c(OC)c(OC)c2)cc1	x	x	x	x	2
14	C[C@@H]1CN([C@@H](C)CO)C(=O)Cc2cc(NS(=O)(=O)c3ccccc3)ccc2O[C@@H]1CN(C)Cc1ccc(C(F)(F)F)cc1	21	5	-9	-3	x
15	CC(C)NC(=O)N(C)C[C@@H]1Oc2ccc(NC(=O)Nc3cccc4ccccc34)cc2C(=O)N([C@@H](C)CO)C[C@@H]1C	1	6	151*	4	i
16	C[C@@H]1CN([C@@H](C)CO)C(=O)Cc2cc(NS(=O)(=O)c3ccccc3)ccc2O[C@H]1CN(C)Cc1ccc(C(F)(F)F)cc1	0	3	159*	1	i
17	C[C@H]1CCCCO[C@@H](CN(C)Cc2ccccc2)[C@@H](C)CN([C@@H](C)CO)C(=O)c2cc(NC(=O)c3ccccc3)ccc2O1	x	11	147*	5	i
18	COc1ccc2c3c([nH]c2c1)[C@@H](CO)N(C(=O)C1CCC1)CC31CCN(S(C)(=O)=O)CC1	0	4	x	x	x
19	Cc1cc(C)c(S(=O)(=O)N2CCN(S(=O)(=O)N3CCC(C)CC3)CC2)c(C)c1	0	3	active	0	10
20	COC(=O)[C@@H]1[C@@H](CO)[C@@H]2Cn3c(ccc(/C=C/c4ccccc4)c3=O)[C@@H]2N1C(=O)CC1CC1	1	x	x	x	x
21	NNC(=O)c1n[nH]c(=O)c2ccccc12	0	0	-21	1	x
22	O=C(NNc1c(Cl)cc(Cl)cc1Cl)c1n[nH]c(=O)c2ccccc12	x	5	209*	-3	-3
23	O=C1CCC(=O)N1OCCCOc1ccc2c(c1)CCC2	x	x	active	0	-1
24	CCCc1nc2ccc(C)cn2c1Cc1ccccc1C(F)(F)F	1	u	105*	20	0
25	CCCc1nc2ccc(C)cn2c1Cc1ccccc1OC	x	-11	45	5	x
26	Cc1cccc(NC(=O)Cc2cccs2)n1	x	x	542*	3	2
27	COc1cc(S(=O)(=O)N2CCOCC2)ccc1F	x	x	196*	-6	-1
28	COc1cc(S(=O)(=O)N2CCOCC2)ccc1N	x	-2	x	x	x
29	CCCN1C[C@@H](C)[C@H](OC)CN(C)C(=O)c2cc(NC(=O)Nc3c(C)noc3C)ccc2OC[C@H]1C	0	4	-6	31	x
30	CN(CC(=O)Nc1cc([N+](=O)[O-])ccc1Cl)Cc1ccc(Br)cc1	x	x	518*	2	3

Some values from above.
compound 1 in E-selectin induc = 0
compound 18 in E-selectin induc = 0

(more compounds)
#	Structure	E-selectin induc	DENV2 CPE	Yeast UUG start-1	Cneo AK release	Yeast UUG start-2
31	C/C(=N\NC(=O)CC1N=C(Cc2ccccc2)NNC1=O)c1ccc(C)cc1 (stereo not given)	x	x	372*	-3	3
32	COC(=O)Nc1ccc(S(=O)(=O)N2CCC(Cc3ccccc3)CC2)cc1	x	x	462*	0	-2
33	COc1ccccc1CC(=O)OC(C)C(=O)Nc1ccc(S(=O)(=O)N2CCCCC2)cc1 (stereo not given)	x	7	-2	-1	-3
34	COC(=O)Nc1ccc(S(=O)(=O)N2CCC(C)CC2)cc1	x	x	4	0	x
35	C[C@H]1CN([C@@H](C)CO)C(=O)Cc2cc(NS(=O)(=O)c3cn(C)cn3)ccc2O[C@H]1CN(C)C(=O)Nc1cccc2ccccc12	1	-10	-9	-3	x
36	C[C@@H]1CCCCO[C@@H](CN(C)S(=O)(=O)c2cn(C)cn2)[C@H](C)CN([C@@H](C)CO)C(=O)c2cc(NS(=O)(=O)c3cn(C)cn3)ccc2O1	0	-7	-1	0	x
37	CCCNC(=O)N1[C@H](CO)[C@@H]2c3ccccc3N(C(=O)c3ccncc3)C[C@@H]21	0	8	-11	-6	x
38	CCCc1cc(C(=O)N/N=C/c2ccc(CC)s2)c2ccccc2n1	x	x	413*	-17	0
39	CCCc1cc(C(=O)N/N=C/c2ccc(C)o2)c2ccccc2n1	x	x	-12	-1	x
40	COc1ccc2c3c([nH]c2c1)[C@@H](CO)N(C(=O)C1CCCC1)CC31CN(C)C1	0	5	x	x	x
41	O=C(c1cccnc1)N1C[C@@H]2[C@H](c3ccccc31)[C@@H](CO)N2C(=O)C1CCOCC1	0	u	117*	-5	i
42	O=C(c1cccnc1)N1C[C@@H]2[C@H](c3ccccc31)[C@H](CO)N2C(=O)C1CC1	0	0	115*	-4	i
43	O=C(C1CC1)N1CC2(C1)[C@@H](c1ccccc1)[C@@H](CO)N2CCC(F)(F)F	0	0	x	x	x
44	CCCNC(=O)C[C@H]1CC[C@@H]2[C@@H](COc3ccc(NC(=O)c4cccc(OC)c4)cc3C(=O)N2C)O1	0	u	25	2	x
45	CN(C)CCCNC(=O)C[C@H]1C=C[C@H](NC(=O)Cc2cccnc2)[C@@H](CO)O1	0	0	-1	2	x
46	CCCCN(C(=O)NC(=O)Nc1ccccc1OCC)S(C)(=O)=O	x	x	-11	-2	x
47	CCOc1ccccc1NC(=O)NC(=O)N(C)S(C)(=O)=O	x	-3	436*	-1	-6
48	Cc1ccc(OC(=O)N(C)C[C@@H]2OCc3ccccc3-c3ccccc3C(=O)N([C@@H](C)CO)C[C@@H]2C)cc1	0	-3	3	0	x
49	Cc1ccccc1-c1ccc2c(c1)O[C@H](CN(C)C(=O)c1ccccn1)[C@@H](C)CN([C@@H](C)CO)S2(=O)=O	0	-6	0	-1	x
50	Cc1ccccc1-c1ccc2c(c1)O[C@H](CN(C)C(=O)c1ccccn1)[C@H](C)CN([C@H](C)CO)S2(=O)=O	-1	-3	139*	-1	i

Full records, quoted from the list. Order of values: E-selectin induc, DENV2 CPE, Yeast UUG start-1, Cneo AK release, Yeast UUG start-2
O=C(CN1CCCc2ccccc21)N/N=C/c1ccc(F)cc1F is listed with x, -3, -22, 1, x
COC(=O)[C@@H]1[C@@H](CO)[C@@H]2Cn3c(ccc(/C=C/c4ccccc4)c3=O)[C@@H]2N1C(=O)CC1CC1 is listed with 1, x, x, x, x
Cc1cccc(NC(=O)Cc2cccs2)n1 is listed with x, x, 542*, 3, 2
CCCNC(=O)N1[C@H](CO)[C@@H]2c3ccccc3N(C(=O)c3ccncc3)C[C@@H]21 is listed with 0, 8, -11, -6, x
